As usually defined, the IC50 is the midpoint of a concentration-inhibition curve.

By UniProt entry, the sequences of proteins in these tests, tags left out.
UniProt P09382, whole entry: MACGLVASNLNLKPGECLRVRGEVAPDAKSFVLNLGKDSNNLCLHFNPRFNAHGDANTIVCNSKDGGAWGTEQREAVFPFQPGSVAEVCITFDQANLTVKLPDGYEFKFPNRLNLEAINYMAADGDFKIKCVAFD

5 compounds from patent US12404295B2, “(Hetero)aryl-methyl-thio-beta-D-galactopyranoside derivatives” (Idorsia Pharmaceuticals Ltd, priority 2019, dated 2025) can be followed below.

The target of the test is human Gal-1 (hGal-1) (Homo sapiens (Human), UniProt P09382). Briefly: competitive binding assay: biotinylated hGal-1 binding to microplate-adsorbed asialofetuin (ASF). To be noted: read-out: IC50 (Galectin-1 inhibition); Table 15.
With `CS(=O)(=O)N1CC(O)(C(S[C@@H]2O[C@H](CO)[C@H](O)[C@H](n3cc(-c4cc(F)c(F)c(F)c4)nn3)[C@H]2O)c2ccccc2C(F)(F)F)C1` (stereo partly drawn) [Example 2..57.112., (2S,3R,4S,5R,6R)-2-(((3-Hydroxy-1-(methylsulfonyl)azetidin-3-yl)(2-(trifluoromethyl)phenyl)methyl)thio)-6-(Hydroxymethyl)-4-(4-(3,4,5-trifluorophenyl)-1H-1,2,3-triazol-1-yl)tetrahydro-2H-pyran-3,5-diol], the IC50 was 0.58 µM.
For `CS(=O)(=O)N1CC(O)([C@H](S[C@@H]2O[C@H](CO)[C@H](O)[C@H](n3cc(-c4cc(F)c(F)c(F)c4)nn3)[C@H]2O)c2ccccc2C(F)(F)F)C1` [Example 2..57.112R., (2S,3R,4S,5R,6R)-2-(((R)-(3-Hydroxy-1-(methylsulfonyl)azetidin-3-yl)(2-(trifluoromethyl)phenyl)methyl)thio)-6-(hydroxymethyl)-4-(4-(3,4,5-trifluorophenyl)-1H-1,2,3-triazol-1-yl)tetrahydro-2H-pyran-3,5-diol], the IC50 stood at 1.2 µM.
Turning to `CS(=O)(=O)N1CC(O)([C@@H](S[C@@H]2O[C@H](CO)[C@H](O)[C@H](n3cc(-c4cc(F)c(F)c(F)c4)nn3)[C@H]2O)c2ccccc2C(F)(F)F)C1` [Example 2..57.112S., (2S,3R,4S,5R,6R)-2-(((S)-(3-Hydroxy-1-(methylsulfonyl)azetidin-3-yl)(2-(trifluoromethyl)phenyl)methyl)thio)-6-(hydroxymethyl)-4-(4-(3,4,5-trifluorophenyl)-1H-1,2,3-triazol-1-yl)tetrahydro-2H-pyran-3,5-diol], the concentration for half-maximal inhibition (IC50) is 76.5 µM.
On to `COC(=O)N1CC(O)(C(S[C@@H]2O[C@H](CO)[C@H](O)[C@H](n3cc(-c4cc(F)c(F)c(F)c4)nn3)[C@H]2O)c2ccccc2C(F)(F)F)C1` (stereo partly drawn) [Example 2..58.112., Methyl 3-((((2S,3R,4S,5R,6R)-3,5-dihydroxy-6-(hydroxymethyl)-4-(4-(3,4,5-trifluorophenyl)-1H-1,2,3-triazol-1-yl)tetrahydro-2H-pyran-2-yl)thio)(2-(trifluoromethyl)phenyl)methyl)-3-hydroxyazetidine-1-carboxylate], for which the IC50 came out at 1.47 µM.
`CO[C@@H]1[C@@H](n2cc(-c3ccc(F)c(F)c3F)nn2)[C@@H](O)[C@@H](CO)O[C@H]1SC(c1ncccc1C)C1(O)CCC(F)(F)CC1` (stereo partly drawn) [Example 21.44.126.I., (2R,3R,4S,5R,6S)-6-(((4,4-Difluoro-1-hydroxycyclohexyl)(3-methylpyridin-2-yl)methyl)thio)-2-(hydroxymethyl)-5-methoxy-4-(4-(2,3,4-trifluorophenyl)-1H-1,2,3-triazol-1-yl)tetrahydro-2H-pyran-3-ol]: the IC50 was 0.38 µM.
